Our source for the IC50 values is patent US10442819B2, “Tricyclic compounds as inhibitors of mutant IDH enzymes” (Merck Sharp & Dohme Corp., priority 2014, dated 2019).

Sequences of proteins named here, by UniProt entry; tags and fusion partners are left off.
UniProt O75874, whole entry R132H: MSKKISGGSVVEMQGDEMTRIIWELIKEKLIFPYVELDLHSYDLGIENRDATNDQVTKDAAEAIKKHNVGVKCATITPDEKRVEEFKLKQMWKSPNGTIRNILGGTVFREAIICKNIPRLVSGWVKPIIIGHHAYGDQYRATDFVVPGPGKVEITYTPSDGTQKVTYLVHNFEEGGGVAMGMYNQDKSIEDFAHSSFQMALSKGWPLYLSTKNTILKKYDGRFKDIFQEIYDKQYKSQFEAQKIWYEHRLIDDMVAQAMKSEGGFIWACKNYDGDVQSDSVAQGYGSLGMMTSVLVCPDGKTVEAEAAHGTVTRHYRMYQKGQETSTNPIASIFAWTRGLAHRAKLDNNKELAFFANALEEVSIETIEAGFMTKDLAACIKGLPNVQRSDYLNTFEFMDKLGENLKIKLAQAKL

For the experiment, the target named is R132H mutant IDH1 enzyme (Homo sapiens (Human), UniProt O75874, R132H). Briefly: R132H IDH1 Enzymatic Assay. The note with it: R132H mutant IDH1 enzyme 1.5 nM final; luminescence readout; read-out: IC50. It counts as biochemical.

By IC50 is commonly meant the concentration at which inhibition is half-maximal. For the compound `CCO[C@H]1CC[C@@H](C(=O)N2Cc3cccnc3Nc3ccc(N4C[C@H]5CC[C@@H]4CO5)cc32)C[C@@H]1F` (single isomer, unassigned) [Example 323], the IC50 was found to be 12 nM.

On to `CC(C)O[C@H]1CC[C@H](C(=O)N2Cc3cccnc3Nc3ccc(C4CCO[C@H]4C)cc32)OC1` (single isomer, unassigned) [Example 530, ((2R,5S)-5-isopropoxytetrahydro-2H-pyran-2-yl)(8-((2S,3R or 2R,3S)-2-methyltetrahydrofuran-3-yl)-5H-benzo[b]pyrido[2,3-e][1,4]diazepin-6(11H)-yl)methanone], for which the 50% inhibitory concentration (IC50) stood at 29 nM.

Regarding `CC(C)O[C@H]1CC[C@H](C(=O)N2Cc3cccnc3Nc3ccc(C4=CCOCC4)cc32)OC1` [Example 22, (8-(3,6-dihydro-2H-pyran-4-yl)-5,11-dihydro-6H-benzo[b]pyrido[2,3-e][1,4]diazepin-6-yl)((2R,5S)-5-isopropoxytetrahydro-2H-pyran-2-yl)methanone], the IC50 turned out to be 9 nM.

As to `CCC1CN(c2ccc3c(c2)N(C(=O)[C@H]2CC[C@H](OC)CC2)Cc2cccnc2N3)CCO1` (stereo partly drawn) [Example 232, 8-(2-ethylmorpholin-4-yl)-6-[(trans-4-methoxycyclohexyl)carbonyl]-6,11-dihydro-5H-pyrido[2,3-b][1,5]benzodiazepine], the IC50 was found to be 686 nM.

With `CC(C)O[C@H]1CC[C@H](C(=O)N2Cc3cccnc3Nc3ccc(C4CCN(S(C)(=O)=O)CC4)cc32)CC1` [Example 528, {8-[1-(Methylsulfonyl)piperidin-4-yl]-5,11-dihydro-6H-pyrido[2,3-b][1,5]benzodiazepin-6-yl}[trans-4-(propan-2-yloxy)cyclohexyl]methanone], the IC50 was found to be 11 nM.

For `CCC[C@H]1CC[C@H](C(=O)N2Cc3cccnc3Nc3ccccc32)CC1` [Example 60, 6-[(trans-4-propylcyclohexyl)carbon-yl]-6,11-dihydro-5H-pyrido[2,3-b][1,5]benzodiazepine], the IC50 stood at 70 nM.

Consider `O=C(C1CCN(CC(F)(F)F)CC1)N1Cc2cccnc2Nc2ccc(N3CC4CCC3CO4)cc21` (stereo not drawn) [Example 321, 8-(2-oxa-5-azabicyclo[2.2.2]oct-5-yl)-6-{[1-(2,2,2-trifluoroethyl)piperidin-4-yl]carbonyl}-6,11-dihydro-5H-pyrido[2,3-b][1,5]benzodiazepine], for which the IC50 amounted to 35 nM.

For the compound `CC1(C)CC(C(=O)N2Cc3cccnc3Nc3ccc(Br)cc32)C1` [Example 57, 8-bromo-6-[(3,3-dimethylcyclobutyl)car-bonyl]-6,11-dihydro-5H-pyrido[2,3-b][1,5]benzodiazepine], the IC50 was 337 nM.

Regarding `CO[C@H]1CC[C@H](C(=O)N2Cc3cccnc3Nc3ccc(-c4cnc5cc[nH]c5c4)cc32)CC1` [Example 409, 6-[(trans-4-methoxycyclohexyl)carbonyl]-8-(1H-pyrrolo[3,2-b]pyridin-6-yl)-6,11-dihydro-5H-pyrido[2,3-b][1,5]benzodiazepine], the IC50 is 44 nM.

Consider `CON=C1CCC(C(=O)N2Cc3cccnc3Nc3ccc(C4=COCCO4)cc32)CC1` (stereo not drawn) [Example 391, 4-{[8-(5,6-dihydro-1,4-dioxin-2-yl)-5,11-dihydro-6H-pyrido[2,3-b][1,5]benzodiazepin-6-yl]carbonyl}cyclohexanone O-methyloxime], for which the IC50 worked out at 36 nM.

Turning to `CC(C)[C@H](N[C@H]1CC[C@@H](C(=O)N2Cc3cccnc3Nc3ccc(N4CCOCC4)cc32)CC1)C(F)(F)F` [Example 455, cis-N-[(1S)-2-methyl-1-(trifluoromethyl)propyl]-4-[(8-morpholin-4-yl-5,11-dihydro-6H-pyrido[2,3-b][1,5]benzodiazepin-6-yl)carbonyl]cyclohexanamine], the IC50 turned out to be 175 nM.

Take `CC(C)O[C@H]1CC[C@H](C(=O)N2Cc3cccnc3Nc3ccc(C4(C#N)CCOCC4)cc32)OC1` [Example 19, 4-(6-((2R,5S)-5-isopropoxytetrahydro-2H-pyran-2-carbonyl)-6,11-dihydro-5H-benzo[b]pyrido[2,3-e][1,4]diazepin-8-yl)tetrahydro-2H-pyran-4-carbonitrile]: the IC50 was found to be 18 nM.

As to `COc1ccc2c(c1)N(C(=O)[C@H]1CC[C@H](OC(C)C)CC1)Cc1cccnc1N2` [Example 519], the IC50 was determined as 72 nM.

Regarding `CC(C)O[C@H]1CC[C@H](C(=O)N2Cc3cccnc3Nc3ccc(C4CCO[C@@H]4C)cc32)OC1` (single isomer, unassigned) [Example 531, ((2R,5S)-5-isopropoxytetrahydro-2H-pyran-2-yl)(8-((2S,3R or 2R,3S)-2-methyltetrahydrofuran-3-yl)-5H-benzo[b]pyrido[2,3-e][1,4]diazepin-6(11H)-yl)methanone], the IC50 was 13 nM.

Take `CO[C@@H]1[C@H](C)C[C@@H](C(=O)N2Cc3cccnc3Nc3ccc(N4CCOCC4)cc32)C[C@@H]1C` [Example 122, 6-{[(1s,3R,4s,5S)-4-methoxy-3,5-dimethylcyclohexyl]car-bonyl}-8-morpholin-4-yl-6,11-dihydro-5H-pyrido[2,3-b][1,5]benzodiazepine]: the IC50 stood at 740 nM.

On to `CCO[C@H]1CC[C@H](C(=O)N2Cc3cccnc3Nc3ccc(N4CCOCC4)cc32)C1` [Example 63, 6-{[(1S,3S)-3-ethoxycyclopentyl]carbon-yl}-8-morpholin-4-yl-6,11-dihydro-5H-pyrido[2,3-b][1,5]benzodiazepine], for which the IC50 came to 487 nM.

On to `CC(C)O[C@H]1CC[C@H](C(=O)N2Cc3cccnc3Nc3ccc(C4OCCOC4C)cc32)OC1` (stereo partly drawn) [Example 35, ((2R,5S)-5-isopropoxytetrahydro-2H-pyran-2-yl)(8-(3-methyl-1,4-dioxan-2-yl)-5,11-dihydro-6H-benzo[b]pyrido[2,3-e][1,4]diazepin-6-yl)methanone], for which the IC50 turned out to be 69 nM.

As for `O=C(C1CCN(CC(F)(F)F)CC1)N1Cc2cccnc2Nc2ccc(N3CC4CCC3CO4)cc21` (stereo not drawn) [Example 320, 8-(2-oxa-5-azabicyclo[2.2.2]oct-5-yl)-6-{[1-(2,2,2-trifluoroethyl)piperidin-4-yl]carbonyl}-6,11-dihydro-5H-pyrido[2,3-b][1,5]benzodiazepine], the IC50 was 9 nM.

As for `CO[C@H]1CC[C@H](C(=O)N2Cc3cccnc3Nc3ccc(N4CCn5cccc5C4)cc32)CC1` [Example 273, 8-(3,4-dihydropyrrolo[1,2-a]pyrazin-2(1H)-yl)-6-[(trans-4-methoxycyclohexyl)carbonyl]-6,11-dihydro-5H-pyrido[2,3-b][1,5]benzodiazepine], the IC50 turned out to be 272 nM.

On to `CCCO[C@H]1CC[C@@H](C(=O)N2Cc3cccnc3Nc3ccc(N4C[C@@H]5C[C@H]4CO5)cc32)CC1` [Example 316, 8-[(1S,4S)-2-oxa-5-azabicyclo[2.2.1]hept-5-yl]-6-[(cis-4-propoxycyclohexyl)carbonyl]-6,11-dihydro-5H-pyrido[2,3-b][1,5]benzodiazepine], for which the IC50 amounted to 88 nM.

Regarding `CO[C@H](C(C)C)[C@H]1CC[C@H](C(=O)N2Cc3cccnc3Nc3ccc(N4CCOCC4)cc32)CC1` [Example 119, 6-({trans-4-[(1R)-1-methoxy-2-methylpropyl]cyclohexyl}-carbonyl)-8-morpholin-4-yl-6,11-dihydro-5H-pyrido[2,3-b][1,5]benzodiazepine], the half-maximal inhibitory concentration (IC50) was found to be 68 nM.
